Test results published in patent US7956082B2, “Indole derivative having PGD2 receptor antagonist activity” (Shionogi & Co., Ltd, priority 2005, dated 2011).

By UniProt entry, the sequences of proteins in these tests, tags left out.
UniProt Q13258, whole entry: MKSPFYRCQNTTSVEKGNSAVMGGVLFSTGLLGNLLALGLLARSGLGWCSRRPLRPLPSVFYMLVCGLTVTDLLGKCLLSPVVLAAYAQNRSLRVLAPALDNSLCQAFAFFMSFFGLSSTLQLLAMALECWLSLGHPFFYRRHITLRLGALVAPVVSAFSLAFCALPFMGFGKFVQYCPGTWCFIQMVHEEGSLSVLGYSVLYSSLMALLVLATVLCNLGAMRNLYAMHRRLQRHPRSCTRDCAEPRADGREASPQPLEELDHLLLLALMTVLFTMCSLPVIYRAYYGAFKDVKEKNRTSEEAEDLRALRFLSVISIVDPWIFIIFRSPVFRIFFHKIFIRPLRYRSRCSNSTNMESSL

Molecular target: DP receptor (Homo sapiens, UniProt Q13258)
Assay: cAMP assay with washed platelets (DP inhibitory activity in vitro)
Conditions: read-out: IC50 (50% DP-inhibitory concentration in the cAMP assay), 100 nM PGD2, cAMP by HTRF
Experimental: 1) Preparation of Platelet and a Method of cAMP Assay
30 ml of peripheral blood was collected from a healthy volunteer using a syringe containing one ninth amount of 3.8% sodium citrate for diagnosis. After being centrifuged at 180 g for 10 minutes at room temperature, a supernatant was collected and used as Platelet Rich Plasma (PRP). The resulting PRP was washed with wash buffer and centrifuged three times (Washed Platelet: WP) and platelets were counted by a microcell counter. WP was added to a plate in amount of 1.5×10^8/assay and the plate was treated, with 3-isobutyl-1-methylxanthin (IBMX; 0.5 mM) for 5 minutes. A reaction was initiated by adding 100 nM of PGD2 5 min after an addition of a test compound. The reaction was terminated with an addition of 1N HCl after 2 minutes and the cells were destructed using 12% triton X-100. An amount of cAMP in the supernatant was assayed by Homogeneous […] (HTRF)

- IC50: 23 nM
Compound: COc1ccc(S(=O)(=O)N2CCC(c3cn(CC(=O)O)c4ccc(Cl)cc34)C2)cc1 (stereo not shown)
